# Measured values as given in paper PMC7243081 (Slas Discovery, 2019).
# Amino acid sequences for entries named in this document (tags omitted). Residues count along the entry.
# UniProt P18508, 39-466: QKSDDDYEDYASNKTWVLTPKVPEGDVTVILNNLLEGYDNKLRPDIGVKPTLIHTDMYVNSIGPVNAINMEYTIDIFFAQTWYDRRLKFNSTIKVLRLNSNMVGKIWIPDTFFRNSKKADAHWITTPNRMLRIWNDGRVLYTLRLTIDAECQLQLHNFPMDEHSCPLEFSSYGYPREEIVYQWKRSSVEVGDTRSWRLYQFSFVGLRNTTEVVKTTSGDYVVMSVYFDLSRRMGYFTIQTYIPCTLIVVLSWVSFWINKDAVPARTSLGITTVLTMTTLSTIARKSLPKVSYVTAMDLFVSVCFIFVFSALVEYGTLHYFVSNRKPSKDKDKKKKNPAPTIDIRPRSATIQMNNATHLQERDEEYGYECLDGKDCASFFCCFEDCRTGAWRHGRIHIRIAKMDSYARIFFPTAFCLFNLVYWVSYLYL
# UniProt P62813, 28-455: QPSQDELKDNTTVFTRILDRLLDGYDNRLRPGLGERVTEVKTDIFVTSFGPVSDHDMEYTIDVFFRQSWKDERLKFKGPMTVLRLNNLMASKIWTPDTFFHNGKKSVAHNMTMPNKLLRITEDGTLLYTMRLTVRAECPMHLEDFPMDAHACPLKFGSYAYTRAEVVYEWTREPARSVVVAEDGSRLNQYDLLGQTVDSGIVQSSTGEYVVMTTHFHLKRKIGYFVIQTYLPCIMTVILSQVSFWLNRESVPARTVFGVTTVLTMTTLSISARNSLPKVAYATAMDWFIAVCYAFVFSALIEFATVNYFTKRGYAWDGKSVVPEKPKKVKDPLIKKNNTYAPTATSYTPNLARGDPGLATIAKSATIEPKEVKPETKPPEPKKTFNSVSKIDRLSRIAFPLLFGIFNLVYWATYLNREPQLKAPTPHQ
# UniProt P63138, 25-474 limits assumed: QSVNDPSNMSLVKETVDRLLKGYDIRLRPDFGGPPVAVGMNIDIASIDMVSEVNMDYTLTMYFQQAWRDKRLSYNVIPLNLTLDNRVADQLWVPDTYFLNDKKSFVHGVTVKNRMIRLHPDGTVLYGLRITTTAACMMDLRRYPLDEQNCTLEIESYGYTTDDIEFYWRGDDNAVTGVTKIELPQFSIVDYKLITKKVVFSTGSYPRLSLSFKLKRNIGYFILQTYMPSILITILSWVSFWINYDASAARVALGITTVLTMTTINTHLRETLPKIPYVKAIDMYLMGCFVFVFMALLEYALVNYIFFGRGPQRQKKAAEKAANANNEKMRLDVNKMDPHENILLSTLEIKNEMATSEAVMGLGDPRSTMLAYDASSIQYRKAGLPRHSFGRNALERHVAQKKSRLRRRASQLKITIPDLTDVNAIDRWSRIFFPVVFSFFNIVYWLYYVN
# Legend:
# [1] = biological target: GABAA receptor (α1, β2, and γ2s subunits, HEK-GABA) (Rattus norvegicus, UniProt P18508+P62813+P63138); assay type: cell-based
# [2] = biological target: α1, β2, and γ2s subunits of the rat GABAA receptors (HEK-GABA cells) (Rattus norvegicus, UniProt P18508+P62813+P63138); assay: QP-DHM modulator mode; assay type: cell-based; conditions: maximum concentration of compound, with GABA at EC30, Fig. 3D
smiles,measurement,setting,value
COc1cc2c(c(OC)c1OC)-c1ccc(OC)c(=O)cc1[C@@H](NC(C)=O)CC2 [Colchicine],outcome of hits validation (activity and specificity for the GABAA receptor),[1],marginal effect
same,effect of GABA increased to % of the maximum (GABA at 10 µM),[2],21%
